Legend:
[1] = Hydrodynamic radius of PEG-albumin colloid; format: physicochemical
[2] = modification of the single free thiol (cys 34); cited from earlier work
[3] = septic patients, following administration of 200 ml 20% albumin; cited from earlier work
[4] = Degree of hydration of PEG-albumin colloid; format: physicochemical; conditions: relative to albumin
[5] = Protein unfolding studies on PEG-Alb; format: physicochemical

| Substance | hydrodynamic radius [1] | decrease in antioxidant activity [2] | increase in thiol concentration [3] | degree of hydration [4] | albumin functionality in protein unfolding studies [5] |
| --- | --- | --- | --- | --- | --- |
| albumin: unmodified albumin, comparator and major extracellular antioxidant in plasma | 3.4 nm | 45% | up to 50% | – | – |
| PEG-Alb: albumin-based colloid composition, a polyethylene glycol (PEG) modified albumin | 10 nm | – | – | 13-16 times compared to albumin | albumin functionality is highly preserved |

From patent publication US20120010144A1, “Peg-albumin composition having at least one protected thiol region as a platform for medications” (priority 2009, published 2012)
